Values quoted from earlier work as cited in publication PMC7176432, “Single-molecule functional anatomy of endogenous HER2-HER3 heterodimers” (eLife, 2020).

Biological target: eGFP (Aequorea victoria) [GFP: P42212]
Details: cited from earlier work

## eGFP (from UniProt P42212)
  Kd: 110 µM
